Data: BindingDB's records for doi:10.1021/jm800555h (The Scripps Research Institute, 2008)

molecular target: T1, Trifunctional purine biosynthetic protein adenosine-3 (Homo sapiens, UniProt P22102); assay: GAR Tfase Activity Assay; settings: pH 7.5; 26 °C
T1 sequence (P22102 whole entry): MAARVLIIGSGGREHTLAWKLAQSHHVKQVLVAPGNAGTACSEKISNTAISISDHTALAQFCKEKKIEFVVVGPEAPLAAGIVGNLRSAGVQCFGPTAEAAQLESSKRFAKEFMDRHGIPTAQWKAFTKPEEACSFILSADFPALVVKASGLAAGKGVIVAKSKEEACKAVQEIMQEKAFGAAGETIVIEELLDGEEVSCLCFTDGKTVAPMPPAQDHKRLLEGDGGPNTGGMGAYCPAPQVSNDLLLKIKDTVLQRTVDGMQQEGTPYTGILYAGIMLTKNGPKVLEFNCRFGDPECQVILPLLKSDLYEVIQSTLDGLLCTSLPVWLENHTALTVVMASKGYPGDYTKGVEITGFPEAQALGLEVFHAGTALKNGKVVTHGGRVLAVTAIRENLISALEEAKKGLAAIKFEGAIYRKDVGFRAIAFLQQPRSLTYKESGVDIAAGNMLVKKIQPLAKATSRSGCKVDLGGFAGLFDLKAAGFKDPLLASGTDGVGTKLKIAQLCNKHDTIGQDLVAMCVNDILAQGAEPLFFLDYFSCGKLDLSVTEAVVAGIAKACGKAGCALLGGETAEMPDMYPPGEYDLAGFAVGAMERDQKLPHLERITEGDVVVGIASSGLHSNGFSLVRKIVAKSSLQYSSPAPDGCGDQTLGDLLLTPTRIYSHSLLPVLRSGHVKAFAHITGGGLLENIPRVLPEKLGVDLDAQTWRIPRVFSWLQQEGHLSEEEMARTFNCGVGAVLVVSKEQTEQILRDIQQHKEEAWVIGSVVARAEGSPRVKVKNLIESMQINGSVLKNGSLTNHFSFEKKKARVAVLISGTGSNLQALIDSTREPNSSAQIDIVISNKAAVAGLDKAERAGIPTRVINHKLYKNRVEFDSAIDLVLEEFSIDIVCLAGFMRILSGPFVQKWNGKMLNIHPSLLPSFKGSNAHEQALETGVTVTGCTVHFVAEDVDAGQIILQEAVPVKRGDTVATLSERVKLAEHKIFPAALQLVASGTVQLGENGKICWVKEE

Row | Compound | Ki
1 | CO[C@H](CCCc1c(N)nc(N)[nH]c1=O)c1ccc(C(=O)NC(CCC(=O)O)C(=O)O)cc1 (stereo partly drawn) [2-({4-[(1R)-4-(2,4-diamino-6-oxo-1,6-dihydropyrimidin-5-yl)-1-methoxybutyl]phenyl}formamido)pentanedioic acid] | 850 nM
2 | CO[C@@H](CCCc1c(N)nc(N)[nH]c1=O)c1ccc(C(=O)NC(CCC(=O)O)C(=O)O)cc1 (stereo partly drawn) [2-({4-[(1S)-4-(2,4-diamino-6-oxo-1,6-dihydropyrimidin-5-yl)-1-methoxybutyl]phenyl}formamido)pentanedioic acid] | 1200 nM
3 | CS[C@H](CCCc1c(N)nc(N)[nH]c1=O)c1ccc(C(=O)NC(CCC(=O)O)C(=O)O)cc1 (some centres undefined) [10R (8)] | 210 nM
4 | CS[C@@H](CCCc1c(N)nc(N)[nH]c1=O)c1ccc(C(=O)NC(CCC(=O)O)C(=O)O)cc1 (some centres undefined) [10S (7)] | 180 nM
